# Measured values reported in patent publication US20060160848A1 (priority 2002, published 2006).
# Key:
# [1] = Sequestering of acrolein from buffered solution at 37° C. (HPLC); conditions: 500 μM acrolein, equimolar hydrazine, 30 minutes (Example 29)
# [2] = marked (experimental) in column Calculated Log P; cited from earlier work
# mouse hepatocytes = assay: Allyl alcohol-induced toxicity in isolated mouse hepatocytes (LDH leakage); conditions: read-out: PC50 (concentration producing a 50% decrease in LDH leakage); @ 60 mins, 0.1 mM AA; N = 4, mean ± SD
compound,measurement,setting,value
NNc1ccc([N+](=O)[O-])cc1[N+](=O)[O-],acrolein removed from solution,[1],around 40%
same,Log P (experimental),[2],1.46
same,EC50,mouse hepatocytes,21 µM
